## Antibody variant affinities, Ab-95 light chain, assay 2

Target: peptide PDVDLGDISGINAS, taken from heptad repeat 2 (HR2) of SARS-CoV-2 spike.

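The parent was found by panning a naive human phage display library on the peptide. The library (AAYL52) carries one to three amino acid substitutions per variant, with no insertions or deletions. The assay is AlphaSeq: two haploid yeast populations carry antibody and antigen on their surface. After mating in shaken culture at 30 °C for 16 h, diploids were selected and their barcode pairs sequenced. A regression on co-assayed BCL2-family reference pairs converts the normalised counts of each replicate to an apparent Kd. Each pool was mated in three replicate cultures.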

The variants keep the heavy chain, the linker and the frameworks of Ab-95 (scFv order VH, a (GGGGS)3 linker, VL).
VH: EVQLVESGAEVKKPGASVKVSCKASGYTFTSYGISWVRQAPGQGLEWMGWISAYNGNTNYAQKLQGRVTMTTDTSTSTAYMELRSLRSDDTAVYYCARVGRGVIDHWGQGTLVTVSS
VL: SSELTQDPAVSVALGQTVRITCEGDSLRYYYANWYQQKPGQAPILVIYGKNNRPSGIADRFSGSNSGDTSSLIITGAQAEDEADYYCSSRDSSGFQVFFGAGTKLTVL

The whole VL of each variant is written out.
The read-out is the apparent dissociation constant on a log10 scale (nM): the lower, the stronger.
Averages over replicates are reported, and they cover detected replicates only.
"n.d." marks a missing value. The strain was present, yet no cells mated with the target were sequenced in that replicate, which points to weak or no binding.

| VL | replicates, log10 nM | log10 Kd (nM), mean | empty controls |
|---|---|---|---|
| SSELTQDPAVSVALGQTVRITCEGDSLRYYYANWYQQKPGQAPILVIYGKNERPFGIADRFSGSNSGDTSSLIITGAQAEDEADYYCSSVDSSGFQVFFGAGTKLTVL | 2.48 2.40 2.15 | 2.34 | 3/9 (3.70) |
| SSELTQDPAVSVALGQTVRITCENDSLRYYYANWYQQKPGQAPILVIYGKKNRPHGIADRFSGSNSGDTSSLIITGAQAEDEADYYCSSRDSSGFQVFFGAGTKLTVL | n.d. n.d. n.d. | n.d. | 4/9 (3.83) |
| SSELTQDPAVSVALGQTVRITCEGDSRRYYYANWYQQKPGQAPILVIYGKNNRPSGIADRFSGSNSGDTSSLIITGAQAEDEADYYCSSRDSSGFQVSFGAGTKLTVL | n.d. n.d. 3.58 | 3.58 | 1/9 (3.84) |
| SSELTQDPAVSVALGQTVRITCAGWSLRYYYANWYQQKPGQAPILVIYGKNNRPSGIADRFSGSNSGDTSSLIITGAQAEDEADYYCQSRDSSGFQVFFGAGTKLTVL | n.d. n.d. n.d. | n.d. | 2/9 (4.00) |
| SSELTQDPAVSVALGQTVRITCEGDSLRYYHANWYQQKPGQAPILVIYDKNNRNSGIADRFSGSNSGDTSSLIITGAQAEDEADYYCSSRDSSGFQVFFGAGTKLTVL | 1.67 1.72 1.32 | 1.57 | 4/9 (4.29) |
| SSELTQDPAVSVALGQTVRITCEGDSLRYYYANWYQQKPGQAPILVIYGKNNRPSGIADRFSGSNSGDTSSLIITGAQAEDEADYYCSFRDSSGFQNWFGAGTKLTVL | 1.95 2.20 2.16 | 2.10 | 1/9 (2.55) |
| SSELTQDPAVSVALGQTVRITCEDDSLRYYYANWYQQKPGQAPILVIYGKPNRPSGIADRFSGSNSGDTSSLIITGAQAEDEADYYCSSRDSSGFQVMFGAGTKLTVL | 5.09 3.66 n.d. | 4.38 | 2/9 (3.61) |
| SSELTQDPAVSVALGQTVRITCEGDSLRYYYANWYQQKPGQAPILVIYGKNNRPSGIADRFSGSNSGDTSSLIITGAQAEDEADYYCSQRCSLGFQVFFGAGTKLTVL | 2.05 1.56 0.98 | 1.53 | 3/9 (2.97) |
| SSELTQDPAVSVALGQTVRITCEGDSLGYYYANWYQQKPGQAPILVIYGKNVFPSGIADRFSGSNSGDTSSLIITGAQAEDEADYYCSSRDSSGFQVFFGAGTKLTVL | 3.81 n.d. n.d. | 3.81 | 3/9 (3.77) |
| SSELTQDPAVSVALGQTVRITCEGDSYRYYYANWYQQKPGQAPILVIYGKNNRPSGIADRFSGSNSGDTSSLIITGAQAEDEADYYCSHRDSSGFQVAFGAGTKLTVL | n.d. n.d. n.d. | n.d. | 0/9 |
| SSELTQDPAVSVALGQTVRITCEGWILRYYYANWYQQKPGQAPILVIYGKNNRPSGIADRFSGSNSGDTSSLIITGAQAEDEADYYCSSRDSSGFQVMFGAGTKLTVL | 3.11 3.88 n.d. | 3.50 | 4/9 (3.95) |
| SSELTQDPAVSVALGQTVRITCEGDSLRYYSANWYQQKPGQAPILVIYGNNNRPIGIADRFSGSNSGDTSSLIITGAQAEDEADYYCSSRDSSGFQVFFGAGTKLTVL | 1.61 1.27 1.11 | 1.33 | 0/9 |
| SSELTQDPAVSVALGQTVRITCEGDSLRYYYANWYQQKPGQAPILVIYGKKNRPSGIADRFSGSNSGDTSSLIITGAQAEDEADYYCSSRDSSYFTVFFGAGTKLTVL | 3.52 4.55 n.d. | 4.03 | 0/9 |
| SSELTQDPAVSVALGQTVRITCEGDSSRYYYANWYQQKPGQAPILVIYGKNSRPSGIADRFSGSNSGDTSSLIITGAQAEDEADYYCSSRDSSGPQVFFGAGTKLTVL | 5.84 n.d. n.d. | 5.84 | 2/9 (3.73) |
| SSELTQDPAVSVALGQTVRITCETDSLRYYYANWYQQKPGQAPILVIYWKNNYPSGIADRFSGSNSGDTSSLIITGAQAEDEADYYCSSRDSSGFQVFFGAGTKLTVL | 3.48 n.d. 4.40 | 3.94 | 4/9 (4.69) |
| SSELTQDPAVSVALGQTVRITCEGDSLCYYYANWYQQKPGQAPILVIYGKNNRPSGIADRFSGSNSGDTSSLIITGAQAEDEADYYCCSRDSSGFQPFFGAGTKLTVL | n.d. 5.64 3.19 | 4.42 | 2/9 (3.12) |
| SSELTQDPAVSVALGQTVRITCEGDSLRYHRANWYQQKPGQAPILVIYGKNNWPSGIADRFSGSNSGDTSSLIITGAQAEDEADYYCSSRDSSGFQVFFGAGTKLTVL | 3.17 3.51 3.17 | 3.28 | 3/9 (3.99) |
| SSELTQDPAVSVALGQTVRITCEGDSLRYYYVNWYQQKPGQAPILVIYGKNDRPSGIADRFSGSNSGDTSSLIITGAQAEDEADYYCSSRDLSGFQVFFGAGTKLTVL | 3.28 2.94 2.91 | 3.04 | 0/9 |
| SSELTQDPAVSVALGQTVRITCEGDSLRCYYANWYQQKPGQAPILVIYGKNNRPSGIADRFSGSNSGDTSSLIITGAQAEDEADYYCSSRFSSGFQVFFGAGTKLTVL | 3.41 3.25 4.06 | 3.58 | 5/9 (4.50) |

Excerpt, the first 3 entries:

{"VL": "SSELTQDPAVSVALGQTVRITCEGDSLRYYYANWYQQKPGQAPILVIYGKNERPFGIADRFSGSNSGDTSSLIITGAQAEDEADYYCSSVDSSGFQVFFGAGTKLTVL", "replicates, log10 nM": "2.48 2.40 2.15", "log10 Kd (nM), mean": "2.34", "empty controls": "3/9 (3.70)"}
{"VL": "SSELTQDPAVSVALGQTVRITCENDSLRYYYANWYQQKPGQAPILVIYGKKNRPHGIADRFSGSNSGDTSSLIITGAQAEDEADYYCSSRDSSGFQVFFGAGTKLTVL", "replicates, log10 nM": "n.d. n.d. n.d.", "log10 Kd (nM), mean": "n.d.", "empty controls": "4/9 (3.83)"}
{"VL": "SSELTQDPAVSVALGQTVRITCEGDSRRYYYANWYQQKPGQAPILVIYGKNNRPSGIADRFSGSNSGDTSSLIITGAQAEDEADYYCSSRDSSGFQVSFGAGTKLTVL", "replicates, log10 nM": "n.d. n.d. 3.58", "log10 Kd (nM), mean": "3.58", "empty controls": "1/9 (3.84)"}

As a blank, each scFv also met three strains without target: over library AAYL52, 28% of these pairings were detected, typically at 3.91 and seldom below 2.90. The control count says in how many pairings with the empty strains this scFv gave a signal, with their mean in brackets.

Data: MIT Lincoln Laboratory AlphaSeq set, Engelhart et al. 2022, doi:10.1038/s41597-022-01779-4, as distributed in FLAb.